Legend:
[1] = target: porcine gelatin (denatured collagen) (porcine); assay: fluorescence retention in crosslinked gelatin films
[2] = target: porcine gelatin (denatured collagen) (porcine); assay: fluorescence on crosslinked gelatin, non-preheated peptides (FIG. 17)
[3] = target: porcine gelatin (denatured collagen) (porcine); assay: fluorescence on crosslinked gelatin, non-preheated peptides, 20 h wash at 37 °C (FIG. 17)
[4] = target: porcine gelatin (denatured collagen) (porcine); assay: fluorescence of CF peptide (20 µM) on crosslinked gelatin films, 37 °C overnight, no preheating
[5] = target: porcine gelatin (denatured collagen) (porcine); assay: ELISA-like assay, 25 °C

For CF-6d, [CF-G3(GPO)6G3]2KG (peptide), which percent retention [1] is on record?
Its percent retention is 66%.

What about the percent higher initial binding (against the monomeric CHP) [2] of the same substance?
The percent higher initial binding (against the monomeric CHP) was 350%.

And the percent more peptide remaining after 20 h wash at 37 °C (against the monomeric CHP) [3]?
The percent more peptide remaining after 20 h wash at 37 °C (against the monomeric CHP) was 50%.

And the fold binding against comparable length CHPs as previously reported [4]?
The fold binding against comparable length CHPs as previously reported was 4 fold.

For b-6d, [(GPO)6G3]2KG3K^Biotin (peptide), which Kd [5] is on record?
The Kd was 621 nM.

With b-9, (GPO)9-G3K^Biotin (peptide) as the substance, how does the Kd [5] read?
The Kd was 573 nM.

With CF-9, CF-G3-(GPO)9 (peptide) as the substance, how does the percent retention [1] read?
The percent retention was 58%.

Which fold binding against comparable length CHPs as previously reported [4] does the source give for CF-9d, [CF-Ahx-(GPO)9G3]2KG (peptide) here?
The fold binding against comparable length CHPs as previously reported was 4 fold.

Reference: patent US20210322559A1
